Protein sequences, listed by entry. Tags and fused reporters are not part of them. Residues count along the entry.
UniProt O75460, 19-977: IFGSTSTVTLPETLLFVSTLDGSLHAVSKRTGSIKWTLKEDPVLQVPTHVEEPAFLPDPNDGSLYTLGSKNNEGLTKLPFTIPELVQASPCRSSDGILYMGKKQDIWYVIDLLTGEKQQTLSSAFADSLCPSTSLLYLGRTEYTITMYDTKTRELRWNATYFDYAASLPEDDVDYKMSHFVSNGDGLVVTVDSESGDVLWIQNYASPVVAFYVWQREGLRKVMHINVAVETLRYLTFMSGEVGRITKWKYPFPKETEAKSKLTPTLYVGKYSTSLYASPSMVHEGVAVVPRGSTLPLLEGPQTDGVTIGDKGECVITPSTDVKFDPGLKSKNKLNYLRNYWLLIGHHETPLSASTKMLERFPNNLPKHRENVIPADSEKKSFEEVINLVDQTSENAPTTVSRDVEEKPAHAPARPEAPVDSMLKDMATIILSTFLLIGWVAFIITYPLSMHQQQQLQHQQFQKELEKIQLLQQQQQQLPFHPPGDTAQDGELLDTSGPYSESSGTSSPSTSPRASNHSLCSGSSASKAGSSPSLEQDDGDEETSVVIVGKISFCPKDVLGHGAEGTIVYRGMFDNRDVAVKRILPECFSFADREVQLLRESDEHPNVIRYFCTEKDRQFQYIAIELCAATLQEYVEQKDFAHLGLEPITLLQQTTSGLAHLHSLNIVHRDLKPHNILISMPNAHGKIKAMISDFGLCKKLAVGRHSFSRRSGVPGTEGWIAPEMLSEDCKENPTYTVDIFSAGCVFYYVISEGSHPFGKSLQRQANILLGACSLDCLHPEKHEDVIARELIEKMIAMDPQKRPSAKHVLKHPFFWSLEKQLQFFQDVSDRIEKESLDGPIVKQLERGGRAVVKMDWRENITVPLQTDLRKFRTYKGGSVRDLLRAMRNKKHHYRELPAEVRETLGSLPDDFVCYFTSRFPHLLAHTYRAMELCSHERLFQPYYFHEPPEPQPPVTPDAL

According to patent publication US9693992B2 (MannKind Corporation, priority 2010, dated 2017):

Target: IRE-1α (Homo sapiens (Human), UniProt O75460)
Experiment: Cellular EC50: endogenous XBP-1 splicing in myeloma cells (MM.1s, DTT stress, RT-PCR)
Format: cell-based
Settings: average cellular EC50, XBP-1 splicing in myeloma cells
Description: Human myeloma MM.1s cells are incubated with a compound for 1.25 hours before stressing the cells with 2 mM dithiothreitol (DTT). After an additional 45 minutes (2 hours total) with compound and DTT, the cells are harvested with TRIZOL® (a mono-phasic solution of phenol and guanidine isothiocyanate), and total RNA is prepared as directed by the manufacturer (Invitrogen). Human XBP-1 is amplified by RT-PCR with the following primers, which flank the 26 base unconventional intron excised by IRE-1α:
RT-PCR of unstressed (U) cells then generates the upper band. When cells are stressed (S) with the endoplasmic reticulum (ER) stressing agent DTT, IRE-1α is activated due to accumulating unfolded protein and the resulting RT-PCR product is 26 base pairs shorter. […] Compound potency reflects SAR in the in vitro enzyme assay.
Compounds which pass specificity assays are assayed for cellular EC50 using endogenous XBP-1 splicing in myeloma cells. XBP-1 is regulated through the excision of a 26 nucleotide intron from the XBP-1 mRNA by the highly specific endoribonuclease activity of IRE-1α. […] This splicing event is used to measure IRE-1α activity on XBP-1 mRNA in cells and tissues.
Briefly, compounds are incubated in the presence or absence of an ER stress agent (e.g., DTT), and the ratio of XBP-1u (unspliced) to XBP-1s (spliced) is quantified by RT-PCR. […]

EC50: < 10 µM
SMILES: COc1cc2c(C)c(CC(=O)N3CCOCC3)c(=O)oc2c(C=O)c1O [Example 167]
